Values quoted from earlier work, collected in paper PMC8795197, “Safety and activity of WX-0593 (Iruplinalkib) in patients with ALK- or ROS1-rearranged advanced non-small cell lung cancer: a phase 1 dose-escalation and dose-expansion trial” (Signal Transduction and Targeted Therapy, 2022).
Read-outs that look alike come from different tables or passages of the source.

Legend:
[1] = tested on: patients treated with ALK TKIs; details: cited from earlier work
[2] = tested on: NSCLC patients with ALK or ROS1 rearrangement; details: cited from earlier work
[3] = Grades 1 and 2 adverse reactions
[4] = ALK+ NSCLC (protocol background)
[5] = ROS1-rearranged NSCLC, phase I, 50 patients
[6] = first-line, randomized phase III vs platinum-double chemotherapy

SMILES | asthenia [1, 3] [%] | constipation [1, 3] [%] | fatigue [1, 3] [%] | myalgia [1, 3] [%] | dose reduction due to TEAEs, % of patients [1] [%] | ORR ([2]; ALK rearrangement, prior chemotherapy) | ORR [2, 4] [%] | PFS [2, 4] | ORR ([2]; FIH phase I, 82 patients with ALK-rearranged advanced NSCLC, ALK inhibitor naive) [%] | PFS at 6 months (estimated) ([2]; FIH phase I, 82 patients with ALK-rearranged advanced NSCLC) [%] | ORR [2, 5] [%] | median PFS [2, 5] [months] | ORR [2, 6] [%] | PFS [2, 6] [months] | diarrhea, % of patients [1] [%]
CCc1cc2c(cc1N1CCC(N3CCOCC3)CC1)C(C)(C)c1[nH]c3cc(C#N)ccc3c1C2=O [Alectinib] | 11 | 15 | 14 | 17 | 16 | – | – | – | – | – | – | – | – | – | –
C[C@@H](Oc1cc(-c2cnn(C3CCNCC3)c2)cnc1N)c1c(Cl)ccc(F)c1Cl [Crizotinib] | – | – | – | – | – | around 60% | 60 | 8-10 months | 57 | 72 | 72 | 19.2 | 74 | 10.9 | 48
